Biological target: T1, human GLP1R (Homo sapiens, UniProt P43220)
T1 construct: expressed in transfected cells
Experiment: GLP1R activation assay using GLP1R-CHO, synthetic agonists (cAMP-screen)
Type: cell-based
Conditions: ratio in words

Amino acid sequences for entries named in this document (tags omitted). Residues count along the entry.
UniProt P43220, 24-463: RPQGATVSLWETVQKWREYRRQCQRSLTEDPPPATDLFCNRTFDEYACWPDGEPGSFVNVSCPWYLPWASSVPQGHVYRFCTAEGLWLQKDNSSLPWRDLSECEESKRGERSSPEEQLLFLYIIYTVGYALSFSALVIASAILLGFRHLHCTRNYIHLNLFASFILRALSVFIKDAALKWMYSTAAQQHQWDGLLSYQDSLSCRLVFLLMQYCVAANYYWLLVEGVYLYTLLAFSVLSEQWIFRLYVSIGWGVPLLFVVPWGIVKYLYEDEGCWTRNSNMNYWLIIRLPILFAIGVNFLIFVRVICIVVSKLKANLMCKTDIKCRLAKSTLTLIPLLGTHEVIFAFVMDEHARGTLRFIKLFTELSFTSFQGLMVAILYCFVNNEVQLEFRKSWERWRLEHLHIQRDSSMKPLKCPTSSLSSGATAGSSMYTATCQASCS

## CC[C@H](C)[C@H](NC(=O)[C@H](Cc1ccccc1)NC(=O)[C@H](CCC(=O)O)NC(=O)[C@H](CCCCN)NC(=O)[C@H](C)NC(=O)[C@H](C)NC(=O)[C@H](CCC(N)=O)NC(=O)CNC(=O)[C@H](CCC(=O)O)NC(=O)[C@H](CC(C)C)NC(=O)[C@H](Cc1ccc(O)cc1)NC(=O)[C@H](CO)NC(=O)[C@H](CO)NC(=O)[C@@H](NC(=O)[C@H](CC(=O)O)NC(=O)[C@H](CO)NC(=O)[C@@H](NC(=O)[C@H](Cc1ccccc1)NC(=O)[C@@H](NC(=O)CNC(=O)[C@H](CCC(=O)O)NC(=O)[C@H](CO)NC(=O)[C@@H](N)Cc1c[nH]cn1)[C@@H](C)O)[C@@H](C)O)C(C)C)C(=O)N[C@@H](C)C(=O)N[C@@H](Cc1c[nH]c2ccccc12)C(=O)N[C@@H](CC(C)C)C(=O)N[C@H](C(=O)N[C@@H](CCCCN)C(=O)NCC(=O)N[C@@H](CCCNC(=N)N)C(=O)O)C(C)C [S^2-GLP1]
  EC50 relative to the Ex4 value: one sixteenth
